What follows are molecules tested against C-Raf FL (full-length C-Raf protein, Y340E and Y341E activating mutations) (Homo sapiens (Human), UniProt P04049, Y340E/Y341E). Conditions: AlphaScreen, 60 min pre-incubation, reaction 1 hour at room temperature; read-out: c-Raf FL IC-50.
Type: biochemical

Amino acid sequences for entries named in this document (tags omitted).
UniProt P04049, whole entry Y340E/Y341E: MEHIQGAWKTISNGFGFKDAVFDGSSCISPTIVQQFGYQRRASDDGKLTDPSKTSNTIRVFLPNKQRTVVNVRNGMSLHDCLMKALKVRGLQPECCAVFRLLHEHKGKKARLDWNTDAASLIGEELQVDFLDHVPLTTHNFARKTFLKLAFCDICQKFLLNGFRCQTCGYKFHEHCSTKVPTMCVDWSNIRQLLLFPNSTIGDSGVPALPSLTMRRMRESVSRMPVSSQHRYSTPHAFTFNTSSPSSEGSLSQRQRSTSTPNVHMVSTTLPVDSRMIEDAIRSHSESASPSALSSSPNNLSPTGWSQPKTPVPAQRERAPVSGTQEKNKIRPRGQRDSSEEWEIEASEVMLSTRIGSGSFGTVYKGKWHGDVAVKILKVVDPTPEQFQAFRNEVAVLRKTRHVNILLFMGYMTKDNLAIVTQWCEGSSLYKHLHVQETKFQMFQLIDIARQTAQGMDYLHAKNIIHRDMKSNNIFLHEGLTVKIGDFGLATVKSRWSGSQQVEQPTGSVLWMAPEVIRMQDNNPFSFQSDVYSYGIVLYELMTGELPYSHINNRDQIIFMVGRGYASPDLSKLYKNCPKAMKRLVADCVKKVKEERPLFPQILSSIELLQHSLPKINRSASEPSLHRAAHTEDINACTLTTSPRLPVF

Structure (SMILES) | IC50 [nM]
Cc1ccc(NC(=O)c2ccnc(C(C)(F)F)c2)cc1-c1cc(NCCO)nc(N2CCOCC2)c1 [Example 1037, 2-(1,1-difluoroethyl)-N-(3-(2-((2-hydroxyethyl)amino)-6-morpholinopyridin-4-yl)-4-methylphenyl)isonicotinamide] | 0.3
Cc1ncc(NC(=O)c2cccc(C(F)F)c2)cc1-c1cc(NCCO)nc(N2CCOCC2)c1 [Example 1038, 3-(difluoromethyl)-N-(2′-((2-hydroxyethyl)amino)-2-methyl-6′-morpholino-[3,4′-bipyridin]-5-yl)benzamide] | 0.45
Cc1ncc(NC(=O)c2ccnc(C(F)F)c2)cc1-c1cc(NCCO)nc(N2CCOCC2)c1 [Example 1039, 2-(difluoromethyl)-N-(2′-((2-hydroxyethyl)amino)-2-methyl-6′-morpholino-[3,4′-bipyridin]-5-yl)isonicotinamide] | 0.96
Cc1ncc(NC(=O)c2ccnc(C(C)(F)F)c2)cc1-c1cc(NCCO)nc(N2CCOCC2)c1 [Example 1041, 2-(1,1-difluoroethyl)-N-(2′-((2-hydroxyethyl)amino)-2-methyl-6′-morpholino-[3,4′-bipyridin]-5-yl)isonicotinamide] | 0.74
CCn1cc(C(=O)Nc2cnc(C)c(-c3cc(NCCO)nc(N4CCOCC4)c3)c2)cc(C(F)(F)F)c1=O [Example 1044, 1-ethyl-N-(2′-((2-hydroxyethyl)amino)-2-methyl-6′-morpholino-[3,4′-bipyridin]-5-yl)-6-oxo-5-(trifluoromethyl)-1,6-dihydropyridine-3-carboxamide] | 4.67
CCN1CCN(c2cc(C(=O)Nc3cnc(C)c(-c4cc(NCCO)nc(N5CCOCC5)c4)c3)cc(C(F)(F)F)c2)CC1 [Example 1045, 3-(4-ethylpiperazin-1-yl)-N-(2′-((2-hydroxyethyl)amino)-2-methyl-6′-morpholino-[3,4′-bipyridin]-5-yl)-5-(trifluoromethyl)benzamide] | 8.18
Cc1ncc(NC(=O)c2ccnc(C(C)(C)O)c2)cc1-c1cc(NCCO)nc(N2CCOCC2)c1 [Example 1046, N-(2′-((2-hydroxyethyl)amino)-2-methyl-6′-morpholino-[3,4′-bipyridin]-5-yl)-2-(2-hydroxypropan-2-yl)isonicotinamide] | 10.6
Cc1ccc(NC(=O)c2cnnc(C(C)(C)C#N)c2)cc1-c1cc(NCCO)nc(N2CCOCC2)c1 [Example 1049, 6-(2-cyanopropan-2-yl)-N-(3-(2-((2-hydroxyethyl)amino)-6-morpholinopyridin-4-yl)-4-methylphenyl)pyridazine-4-carboxamide] | 1.14
Cc1ccc(NC(=O)c2ccnc(C3(C#N)CC3)c2)cc1-c1cc(NCCO)nc(N2CCOCC2)c1 [Example 1050, 2-(1-cyanocyclopropyl)-N-(3-(2-((2-hydroxyethyl)amino)-6-morpholinopyridin-4-yl)-4-methylphenyl)isonicotinamide] | 0.26
Cc1ncc(NC(=O)c2cnnc(C(F)(F)F)c2)cc1-c1cc(NCCO)nc(N2CCOCC2)c1 [Example 1051, N-(2′-((2-hydroxyethyl)amino)-2-methyl-6′-morpholino-[3,4′-bipyridin]-5-yl)-6-(trifluoromethyl)pyridazine-4-carboxamide] | 1.04
Cc1ncc(NC(=O)c2cnnc(C3CC3)c2)cc1-c1cc(NCCO)nc(N2CCOCC2)c1 [Example 1052, 6-cyclopropyl-N-(2′-((2-hydroxyethyl)amino)-2-methyl-6′-morpholino-[3,4′-bipyridin]-5-yl)pyridazine-4-carboxamide] | 1.48
Cc1ccc(NC(=O)c2ccnc(C(C)(C)C#N)c2)cc1-c1cc(N2CCOCC2)nc(N2CC(O)C2)c1 [Example 1059, 2-(2-cyanopropan-2-yl)-N-(3-(2-(3-hydroxyazetidin-1-yl)-6-morpholinopyridin-4-yl)-4-methylphenyl)isonicotinamide] | 0.85
Cc1ccc(NC(=O)c2cccc(C(F)(F)F)c2)cc1-c1cc(NCC(C)(C)O)nc(N2CCOCC2)c1 [Example 1062, N-(3-(2-((2-hydroxy-2-methylpropyl)amino)-6-morpholinopyridin-4-yl)-4-methylphenyl)-3-(trifluoromethyl)benzamide] | 0.25
Cc1ccc(NC(=O)c2cccc(C(F)(F)F)c2)cc1-c1cc(NCC(O)C(F)(F)F)nc(N2CCOCC2)c1 (centres unmarked) [Example 1063, N-(4-methyl-3-(2-morpholino-6-((3,3,3-trifluoro-2-hydroxypropyl)amino)pyridin-4-yl)phenyl)-3-(trifluoromethyl)benzamide] | 0.25
Cc1ccc(NC(=O)c2cccc(C(F)(F)F)c2)cc1-c1cc(NC(=O)C(C)O)nc(N2CCOCC2)c1 (centres unmarked) [Example 1066, N-(3-(2-(2-hydroxypropanamido)-6-morpholinopyridin-4-yl)-4-methylphenyl)-3-(trifluoromethyl)benzamide] | 0.21
Cc1ccc(NC(=O)c2ccnc(C3CC3)c2)cc1-c1cc(N2CCOCC2)nc(N2CC(O)C2)c1 [Example 1068, 2-cyclopropyl-N-(3-(2-(3-hydroxyazetidin-1-yl)-6-morpholinopyridin-4-yl)-4-methylphenyl)isonicotinamide] | 0.14
Cc1ccc(NC(=O)c2ccnc(C(C)C)c2)cc1-c1cc(N2CCOCC2)nc(N2CC(O)C2)c1 [Example 1069, N-(3-(2-(3-hydroxyazetidin-1-yl)-6-morpholinopyridin-4-yl)-4-methylphenyl)-2-isopropylisonicotinamide] | 0.53

More lines, now with the values ahead:

IC50 [nM] | Structure (SMILES)
0.15 | Cc1ccc(NC(=O)c2cccc(C(F)F)c2)cc1-c1cc(NCCO)nc(N2CCOCC2)c1 [Example 1036, 3-(difluoromethyl)-N-(3-(2-((2-hydroxyethyl)amino)-6-morpholinopyridin-4-yl)-4-methylphenyl)benzamide]
0.68 | Cc1ncc(NC(=O)c2ccnc(C(F)(F)F)c2)cc1-c1cc(NCCO)nc(N2CCOCC2)c1 [Example 1040, N-(2′-((2-hydroxyethyl)amino)-2-methyl-6′-morpholino-[3,4′-bipyridin]-5-yl)-2-(trifluoromethyl)isonicotinamide]
5.04 | Cc1ncc(NC(=O)c2ccnc(C(C)(C)C#N)c2)cc1-c1cc(NCCO)nc(N2CCOCC2)c1 [Example 1042, 2-(2-cyanopropan-2-yl)-N-(2′-((2-hydroxyethyl)amino)-2-methyl-6′-morpholino-[3,4′-bipyridin]-5-yl)isonicotinamide]
3.71 | Cc1ncc(NC(=O)c2ccnc(S(C)(=O)=O)c2)cc1-c1cc(NCCO)nc(N2CCOCC2)c1 [Example 1043, N-(2′-((2-hydroxyethyl)amino)-2-methyl-6′-morpholino-[3,4′-bipyridin]-5-yl)-2-(methylsulfonyl)isonicotinamide]
0.51 | Cc1ccc(NC(=O)c2cnnc(C(F)(F)F)c2)cc1-c1cc(NCCO)nc(N2CCOCC2)c1 [Example 1047, N-(3-(2-((2-hydroxyethyl)amino)-6-morpholinopyridin-4-yl)-4-methylphenyl)-6-(trifluoromethyl)pyridazine-4-carboxamide]
0.2 | Cc1ccc(NC(=O)c2ccnc(C(F)F)c2)cc1-c1cc(NCCO)nc(N2CCOCC2)c1 [Example 1053, 2-(difluoromethyl)-N-(3-(2-((2-hydroxyethyl)amino)-6-morpholinopyridin-4-yl)-4-methylphenyl)isonicotinamide]
0.33 | Cc1ccc(NC(=O)c2ccnc(C(F)(F)F)c2)cc1-c1cc(NC2CCOC2)nc(N2CCOCC2)c1 (centres unmarked) [Example 1054, N-(4-methyl-3-(2-morpholino-6-((tetrahydrofuran-3-yl)amino)pyridin-4-yl)phenyl)-2-(trifluoromethyl)isonicotinamide]
0.38 | Cc1ccc(NC(=O)c2ccnc(C(F)(F)F)c2)cc1-c1cc(NCC2CCOC2)nc(N2CCOCC2)c1 (centres unmarked) [Example 1055, N-(4-methyl-3-(2-morpholino-6-(((tetrahydrofuran-3-yl)methyl)amino)pyridin-4-yl)phenyl)-2-(trifluoromethyl)isonicotinamide]
2.19 | Cc1ncc(NC(=O)c2ccnc(C(C)(C)F)c2)cc1-c1cc(NCCO)nc(N2CCOCC2)c1 [Example 1056, 2-(2-fluoropropan-2-yl)-N-(2′-((2-hydroxyethyl)amino)-2-methyl-6′-morpholino-[3,4′-bipyridin]-5-yl)isonicotinamide]
0.81 | Cc1ncc(NC(=O)c2ccnc(C3CC3)c2)cc1-c1cc(NCCO)nc(N2CCOCC2)c1 [Example 1057, 2-cyclopropyl-N-(2′-((2-hydroxyethyl)amino)-2-methyl-6′-morpholino-[3,4′-bipyridin]-5-yl)isonicotinamide]
1.77 | CCC(F)(F)c1cc(C(=O)Nc2cnc(C)c(-c3cc(NCCO)nc(N4CCOCC4)c3)c2)ccn1 [Example 1058, 2-(1,1-difluoropropyl)-N-(2′-((2-hydroxyethyl)amino)-2-methyl-6′-morpholino-[3,4′-bipyridin]-5-yl)isonicotinamide]
0.95 | Cc1ccc(NC(=O)c2ccnc(C(F)(F)F)c2)cc1-c1cc(N2CCOCC2)nc(N2CC(O)C2)c1 [Example 1060, N-(3-(2-(3-hydroxyazetidin-1-yl)-6-morpholinopyridin-4-yl)-4-methylphenyl)-2-(trifluoromethyl)isonicotinamide]
0.65 | CCn1cc(C(=O)Nc2ccc(C)c(-c3cc(N4CCOCC4)nc(N4CC(O)C4)c3)c2)cc(C(F)(F)F)c1=O [Example 1061, 1-ethyl-N-(3-(2-(3-hydroxyazetidin-1-yl)-6-morpholinopyridin-4-yl)-4-methylphenyl)-6-oxo-5-(trifluoromethyl)-1,6-dihydropyridine-3-carboxamide]
0.18 | Cc1ccc(NC(=O)c2cccc(C(F)(F)F)c2)cc1-c1cc(N2CCOCC2)nc(N2C[C@H](O)CC2=O)c1 [Example 1064, (R)—N-(3-(2-(4-hydroxy-2-oxopyrrolidin-1-yl)-6-morpholinopyridin-4-yl)-4-methylphenyl)-3-(trifluoromethyl)benzamide]
0.27 | Cc1ccc(NC(=O)c2ccnc(C(F)F)c2)cc1-c1cc(N2CCOCC2)nc(N2CC(O)C2)c1 [Example 1067, 2-(difluoromethyl)-N-(3-(2-(3-hydroxyazetidin-1-yl)-6-morpholinopyridin-4-yl)-4-methylphenyl)isonicotinamide]
